Earlier results as cited in patent US20090181062A1, “DISPENSING A BIRD REPELLANT” (priority 2005, published 2009).

Test system: leaves of treated plants
Settings: sprayed on fruits and berries, large amounts of large size droplets

In the case of `COC(=O)c1ccccc1N` [MA, Methyl Anthranilate], the phytotoxicity on leaves is given as “severe phytotoxicity”.
